pKi: −log10 of the molar value.
Molecular target: T1, Serine protease 1 (Bos taurus, UniProt P00760)
T1 sequence (P00760 whole entry): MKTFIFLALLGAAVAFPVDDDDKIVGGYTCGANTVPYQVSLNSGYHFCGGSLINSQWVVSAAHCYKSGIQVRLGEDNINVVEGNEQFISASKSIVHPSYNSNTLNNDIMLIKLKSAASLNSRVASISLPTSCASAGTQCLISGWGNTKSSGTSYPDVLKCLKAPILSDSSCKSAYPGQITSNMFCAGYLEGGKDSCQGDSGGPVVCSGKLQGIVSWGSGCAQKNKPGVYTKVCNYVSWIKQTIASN
Test: Enzyme Inhibition Assay
Conditions: pH 7.5; 22 °C
Procedure: The enzyme activities were determined kinetically as the initial rate of cleavage of a peptide p-nitroanilide. Km for enzyme and substrate was determined using four substrate dilutions. Enzyme was incubated with test compounds for 10 min; the reaction was then started by the addition of the substrate. […] IC50 values for inhibitors were determined from the dose response curve by fitting the data to the Hill equation. Ki,app values were calculated as the IC50/2, with the IC50 value determined at a substrate concentration equal to Km

pKi: 6.06
SMILES: Cc1c(F)c(Oc2cccc(C(=N)N)c2)nc(Oc2cccc(C(=N)N)c2)c1F

— BindingDB's records for doi:10.1107/s0907444999007350 (Berlex, 1999)
